Experimental data: patent US7148338B2, “Nucleic acids encoding dipeptidyl peptidases” (The University of Sydney, priority 1999, dated 2006)

Key:
DPP8 = DPP8 (Homo sapiens, UniProt Q6V1X1); test: Inhibition of peptidase activity of purified DPP8, substrate H-Ala-Pro-pNA; type: biochemical; parameters: the full length DPP8 cDNA of 3.1 kb was cloned into the Xba I site of pcDNA3.1A/V5/His expression vector; His tag (C); made in house; host or cells: COS-7 cells, stably transfected; conditions: for Residual activity (% of control): inhibitor 4 mM, 1 mM H-Ala-Pro-pNA, pH 7.4
Procedure: (§1) Cells (1×10^7) expressing each protein were sonicated in native buffer (50 mM sodium phosphate, 300 mM NaCl), then treated with 700 U DNAse for 20 min at room temperature. DPPIV is expressed at the cell surface, so 1% Triton X-100 was used to solubilize DPPIV/V5/His. Insoluble material was removed by centrifugation. The supernatant was incubated with 1 mL Talon® Metal Affinity Resin (Clontech) following the manufacturer's instructions for a batch/gravity flow procedure. The resin was washed with 50 mM sodium phosphate, containing 300 mM NaCl and 5 mM imidazole, and proteins were eluted using the same buffer containing 150 mM imidazole. Enzyme activity was used to monitor eluted fractions.
Enzyme assays were performed as described previously. Either clarified cell extract from 1×10^4 sonicated COS-7 cells or purified protein derived from 1×10^5 cells was incubated with substrate in 70 μL phosphate buffer, pH 7.4, for 30 min at 37° C., except where otherwise indicated. The specific DPPIV substrates, Gly-Pro-toluenesulfonate, H-Gly-Pro-p-nitroanilide (NA)/HCl (Sigma, St Louis, Mo., USA) and Gly-Pro-7-amino-4-trifluromethylcoumarin (Calbiochem, San Diego, Calif., USA) were tested. Other substrates tested were H-Ala-Pro-pNA/HCl, H-Arg-Pro-pNA acetate salt, H-Lys-Ala-pNA.2HCl, H-Asp-Pro-pNA, H-Ala-Ala-pNA/HCl, H-Ala-Ala-Pro-pNA/HCl, H-Ala-Ala-Phe-pNA, succinyl-Ala-Pro-pNA, H-Ala-Phe-Pro-pNA and Z-Ala-Pro-p-NA from Bachem (Switzerland). H-Ala-Pro-4-methoxyβNA/HCl, Z-Lys-Pro-4-methoxyβNAformate salt, H-Lys-Pro-4-methoxyβNA/HCl, Z-Ala-Pro-4-methoxyβNA, H-Gly-Pro-βNA and H-His-Ser-4-methoxyβNAacetate salt (Bachem) were tested for their ability to stain unfixed transfected cells. All inhibitors were (see Table 2) incubated with each purified enzyme in phosphate buffer, pH 7.4, for 15 min before the addition of substrate. After the addition of 1 mM H-Ala-Pro-pNA substrate for purified DPP8 and 1 mM H-Gly-Pro-pNA substrate for purified DPPIV, samples were incubated for 60 min at 37° C. All enzyme assays were performed in triplicate.

DPPIV = DPPIV (Homo sapiens, UniProt P27487); test: Inhibition of peptidase activity of purified DPPIV, substrate H-Gly-Pro-pNA; type: biochemical; parameters: His tag; made in house; host or cells: transfected COS-7 cells; solubilised with 1% Triton X-100; conditions: inhibitor 4 mM; 1 mM H-Gly-Pro-pNA, pH 7.4
Procedure: as §1
Enzyme assays were performed as described previously. Either clarified cell extract from 1×10^4 sonicated COS-7 cells or purified protein derived from 1×10^5 cells was incubated with substrate in 70 μL phosphate buffer, pH 7.4, for 30 min at 37° C., except where otherwise indicated. The specific DPPIV substrates, Gly-Pro-toluenesulfonate, H-Gly-Pro-p-nitroanilide (NA)/HCl (Sigma, St Louis, Mo., USA) and Gly-Pro-7-amino-4-trifluromethylcoumarin (Calbiochem, San Diego, Calif., USA) were tested. […]

## NCCc1ccc(S(=O)(=O)F)cc1 [AEBSF, 4-(2-aminoethyl)benzenesulfonylfluoride]
DPP8
  Residual activity (% of control): 40 % of control

## H-Lys-Pro-OH HCl salt (KP) [peptide that mimics DPP8 substrates]
DPPIV
  Residual activity (% of control): 45 % of control
DPP8
  Residual activity (% of control): 63 % of control
DPP8; purified DPP8
  Inhibition of DPP8 enzyme activity (in words): probably competitively inhibited
